The source of these data is article PMC6704710, “Preclinical evaluation of 3D185, a novel potent inhibitor of FGFR1/2/3 and CSF-1R, in FGFR-dependent and macrophage-dominant cancer models” (Journal of Experimental & Clinical Cancer Research : CR, 2019).

Chains of the proteins cited; added tags and fusions are not shown. Residues count along the entry.
UniProt P07333, 20-972: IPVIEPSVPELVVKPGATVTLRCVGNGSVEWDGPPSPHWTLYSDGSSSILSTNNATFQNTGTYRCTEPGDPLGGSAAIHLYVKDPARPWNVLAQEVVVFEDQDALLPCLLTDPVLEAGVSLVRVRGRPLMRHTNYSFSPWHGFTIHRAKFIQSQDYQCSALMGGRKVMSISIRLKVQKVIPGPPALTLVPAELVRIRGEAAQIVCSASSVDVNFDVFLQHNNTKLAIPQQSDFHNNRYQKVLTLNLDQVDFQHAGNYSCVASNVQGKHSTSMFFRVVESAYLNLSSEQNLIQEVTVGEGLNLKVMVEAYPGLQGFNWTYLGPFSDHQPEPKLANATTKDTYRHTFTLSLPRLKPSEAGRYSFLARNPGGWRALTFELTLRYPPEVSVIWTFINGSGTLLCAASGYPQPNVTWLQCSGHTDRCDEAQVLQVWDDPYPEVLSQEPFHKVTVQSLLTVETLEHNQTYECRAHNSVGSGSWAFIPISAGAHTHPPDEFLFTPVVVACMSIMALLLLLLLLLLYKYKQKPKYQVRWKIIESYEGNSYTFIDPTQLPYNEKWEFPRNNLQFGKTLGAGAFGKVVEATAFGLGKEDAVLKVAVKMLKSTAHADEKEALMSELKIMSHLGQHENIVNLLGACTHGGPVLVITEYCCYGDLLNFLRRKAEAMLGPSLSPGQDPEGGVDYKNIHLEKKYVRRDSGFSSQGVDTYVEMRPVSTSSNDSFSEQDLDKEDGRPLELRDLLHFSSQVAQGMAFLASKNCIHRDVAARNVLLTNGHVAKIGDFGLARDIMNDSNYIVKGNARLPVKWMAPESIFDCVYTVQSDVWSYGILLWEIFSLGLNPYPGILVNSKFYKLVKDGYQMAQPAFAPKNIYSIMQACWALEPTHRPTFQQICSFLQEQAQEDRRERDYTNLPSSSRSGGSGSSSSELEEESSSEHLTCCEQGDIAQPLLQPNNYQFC

Usually IC50 stands for the point on the concentration scale where inhibition reaches its midpoint. Higher therefore signals weaker potency in that assay.

The target of this test is CSF-1R (Homo sapiens, UniProt P07333). In words: Z'-LYTE kinase assay. The format is biochemical. Particulars: mean ± SD.

In turn, AZD4547 [reference compound] registered a half-maximal inhibitory concentration (IC50) of 40.3 nM.
